Assay outcomes (PubChem)
Rango-impB inh: Rango-importin beta binding inhibition. AID 540263. Rango CFP/YFP FRET sensor + importin beta, 45 min. hit rate 0.031% among 340,000. Q14974. Potency, µM (titrated, usually from 92.2 µM), inactives show at the highest dose inhibition of complex formation;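 also: 0% = DMSO wells and 100% = buffer wells lacking importin beta; nearly all actives have a fitted effect of over 15% in size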
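FRET biosensor (snurportin 1 IBB flanked by EYFP and cerulean), 50 nM, with compound 5 min, then 0.125 microM importin beta in PBS, 1 mM DTT, 0.02% Tween-20, 0.1% BSA. CFP/YFP ratio read after 45 min at room temperature; pre-read flags interference.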
Rango release inh: prevents RanGTP from dissociating the Rango-importin beta complex; hit rate 0.071% among 340,000; AID 540253; O95149+P62826; Potency, µM (doses to about 46.1 µM), for inactives: at the top dose activity change, negative = inhibition; Biochemical FRET Rango-importin beta, RanGTP-induced dissociation; also: % of control where 0% means no effect; nearly all actives have a fitted effect of over 45% in size
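FRET read at 45 min, room temperature: inhibitors block the CFP/YFP signal rise when RanGTP (0.6 uM Ran, 2 mM GTP, 0.2 uM RCC1) frees Rango (0.1 uM) from importin beta (0.25 uM). Pre-read after 5 min compound exposure flags interference.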
gsp antag: antagonists of gsp mutant (McCune-Albright syndrome); gsp-mutant cells, cAMP HTRF, 30 min; Potency, µM (top dose mostly 76.9 µM), without a hit: top-dose activity change, negative = inhibition, actives largely listed as inhibitors; hit rate 0.4% among 340,000; AID 624288; calls by dose curve; cell line not stated here;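 also: intracellular cAMP measured with PDE inhibitor Ro 20-1724 present during compound exposure; % is scaled to controls: 0 for no effect and ±100 for the full control effect; nearly all actives have a fitted effect of over 65% in size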
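HTRF cAMP read-out (cAMP-d2 plus anti-cAMP antibody-K in lysis buffer, 30 min RT). Before lysis, cells are exposed to compounds with […] for 30 min at 37C in DPBS containing Ca/Mg, BSA and Tween 20.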
gsp agonist: agonists of gsp mutant (McCune-Albright syndrome); Potency, µM (titrated, usually from 76.9 µM), for the others: top-dose activation (cAMP increase), usual class: activators; gsp mutant cells, cAMP HTRF, 30 min; hit rate 0.13% among 340,000; active = well fitted activation curve with a large enough effect; inconclusive = small, poorly fitted or top-dose-only effect, or another doubt; inactive = no such curve, though single readings can be large or run the other way; cell line not stated here;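 also: phosphodiesterase inhibitor Ro 20-1724 added with compounds to block cAMP breakdown; nearly all actives have a fitted effect of over 60% in size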
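Cells stably selected in G418 were plated at 2000/well, grown 16-24 hr, then given compounds in DMSO with the PDE inhibitor […] (300 uM solution added) for 30 min at 37C; cAMP was read by HTRF.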
The depositor's hits bear a star; u = inconclusive; x = no result; ! = not confirmed by another sample; [ ] = dose if it differs, or a comment. Rows were chosen to be rich in hits. Some 0.66% of all compounds tested hit in one or more screens of this group. Unless noted, calls follow the shape of the full dose curve. Potency is read from the fitted curve at half-maximal effect.

Assay codes: A = Rango-impB inh; B = Rango release inh; C = gsp antag; D = gsp agonist
Cc1cc(S(=O)(=O)c2ccc(Cl)cc2)nc(S(=O)(=O)c2ccc(Cl)cc2)c1C#N
  A: x | B: x | C: x | D: 7%

O=C(C(Cl)Cl)N1CCN(Cc2ccc3c(c2)OCO3)CC1
  A: u | B: -4% | C: -1% | D: -11%

CC(C(=O)N1CCN(Cc2ccc3c(c2)OCO3)CC1)c1ccc([N+](=O)[O-])cc1 (stereo not drawn)
  A: -1% | B: 2% | C: 11µM* | D: -2%[15.4 µM]

CN(C)c1ccc(-c2nc3cc(N)ccc3o2)cc1
  A: u | B: u | C: 12% | D: 20µM*

COc1cc(-c2cc(C(=O)Nc3cccc(S(=O)(=O)N(C)C)c3)c3ccccc3n2)cc(OC)c1OC
  A: 0% | B: -1% | C: -9% | D: -16%[15.4 µM]

Cc1ccc(-c2cc(C(=O)Nc3cccc(S(=O)(=O)N(C)C)c3)c3ccccc3n2)o1
  A: u | B: 15µM* | C: 9% | D: -13%[15.4 µM]

CCOC(=O)/C(=C(/C)N)C1CC(=O)NC1=O (stereo not drawn)
  A: x | B: x | C: x | D: -39%

CCC1(CC)Cc2ccccc2-c2[nH]c(=S)[nH]c(=O)c21
  A: 0% | B: -12% | C: 11% | D: 6.3µM*

CCOC(=O)c1c(C)[nH]c(C(=O)OCC(=O)N2c3ccccc3CC2C)c1C (stereo not drawn)
  A: 3% | B: -4% | C: -19% | D: 21%

CCOC(=O)C1=C(C)NC(C)=C(C(=O)OCC)C1C(=O)OCC(=O)N1c2ccccc2CC1C (stereo not drawn)
  A: u | B: -16% | C: 11µM*! | D: -18%

O=C(CC1CC2CCC1C2)N1CCN(S(=O)(=O)c2ccc(F)cc2)CC1 (stereo not drawn)
  A: x | B: x | C: x | D: -92%

O=C(Cc1ccccc1F)Nc1cc(S(=O)(=O)N2CCCCC2)ccc1N1CCOCC1
  A: x | B: x | C: x | D: 0%

N#C/C(=N\Nc1ccc(Cl)c(Cl)c1)C(=O)C1CC1
  A: u | B: 10% | C: 25µM* | D: -24%

CC(=O)c1ccc(-n2c(CCC(=O)O)ccc2-c2ccc(Br)cc2)cc1
  A: -2% | B: -10% | C: 0.89µM* | D: u

C[C@@H]1CN([C@@H](C)CO)S(=O)(=O)c2ccc(Br)cc2O[C@H]1CN(C)C(=O)c1cccc(F)c1
  A: x | B: x | C: x | D: -68%

COc1ccccc1CNC(=O)COC(=O)c1ccc(C(=O)c2ccccc2)cc1
  A: -2% | B: -10% | C: -2% | D: 7%[15.4 µM]

COc1ccccc1CNC(=O)COC(=O)c1ccc(Cl)c(N)c1
  A: 1% | B: 1% | C: 11µM* | D: -9%[15.4 µM]

COC(=O)CCCC(=O)OC
  A: 7% | B: 3% | C: -4% | D: x

COC(=O)CCN(C)CCC(=O)OC
  A: -2% | B: 24% | C: 50µM* | D: 7%

Cc1cc(/C=C2\SC(=S)N(C)C2=O)c(C)n1-c1ccccc1O
  A: u | B: u | C: 35µM* | D: 26%

C=CCn1c(=O)c(C(=O)Nc2ncccc2C)c(O)c2ccccc21
  A: x | B: x | C: x | D: -124%

C(=N\Nc1nc(Nc2ccccc2)nc(N2CCOCC2)n1)/c1c[nH]c2ccccc12
  A: -5% | B: -25% | C: -24% | D: 1%

Cc1ccc(Nc2nc(N/N=C/c3c[nH]c4ccccc34)nc(N3CCOCC3)n2)cc1
  A: 3% | B: 27% | C: 40µM* | D: 1%[15.4 µM]

CSc1nc(N)nc(SCC(=O)Nc2cccc(F)c2)c1C#N
  A: 4% | B: -6% | C: 28µM* | D: -2%

CCN(CC)c1ncnc2ccc(Br)cc12
  A: -1% | B: 0% | C: 1% | D: 18µM*

CN1CCN(c2ccc3sc(-n4ccc5ccccc54)nc3c2)CC1
  A: x | B: x | C: x | D: -8%

COC(=O)[C@@H](NS(=O)(=O)c1cc(Br)ccc1Br)C(C)C
  A: x | B: x | C: x | D: -33%

Cc1c(N2C(=O)/C(=C\c3ccc(N(C)C)cc3)N(C)C2=S)c(=O)n(-c2ccccc2)n1C
  A: 52µM* | B: 1% | C: -31% | D: -65%

CN1C(=S)N(c2cccnc2)C(=O)/C1=C\c1ccc(N(C)C)cc1
  A: 5% | B: 17% | C: -13% | D: 0%

CC(=O)Nc1cccc(/C(C)=N/Nc2ccc(S(=O)(=O)Nc3ccccc3C(=O)O)cc2[N+](=O)[O-])c1
  A: 0% | B: 14% | C: -13% | D: -66%

C=CCNC(=S)Nc1sc2c(c1C(=O)OCC)CCN(C(=O)OCC)C2
  A: 2% | B: -7% | C: -2% | D: 16%

CCOC(=O)c1c(NC(=O)C2CC(Cl)=CCC2C(=O)O)sc2c1CC(C)(C)OC2 (stereo not drawn)
  A: -3% | B: -14% | C: 14µM* | D: 23%[15.4 µM]

C=CCNC(=S)Nc1sc2c(c1C(=O)OCC)CC(C)(CC)OC2 (stereo not drawn)
  A: 0% | B: 24% | C: 7.9µM* | D: -2%[15.4 µM]

COc1ccc2[nH]c3c(c2c1)CCN1C(=O)C(CC(=O)NC/C=C(\C)CCC=C(C)C)C[C@H](C(=O)N(C(C)C)C(C)C)[C@@]31C (stereo partly drawn)
  A: 6% | B: -4% | C: -6% | D: x

Cc1cc(NC(=O)CSc2ccc3nnc(-c4cccs4)n3n2)no1
  A: -1% | B: 0% | C: 13% | D: 11µM*

Cc1ccc(-c2nnc3ccc(SCC(=O)Nc4cc(C)on4)nn23)cc1
  A: -1% | B: 1% | C: 1% | D: -1%

O=C(CSc1ccc2nnc(-c3ccncc3)n2n1)Nc1ccc2c(c1)OCO2
  A: 2% | B: 9% | C: 0% | D: 16µM*

O=C(NC(Nc1nc2ccc([N+](=O)[O-])cc2s1)(C(F)(F)F)C(F)(F)F)c1cccnc1
  A: u | B: u | C: 35µM* | D: u

O=[N+]([O-])c1ccc2nc(SCc3ccccc3Cl)sc2c1
  A: 7% | B: 15% | C: 25µM* | D: -12%

Nc1ccc2nc(SCc3ccc([N+](=O)[O-])cc3)sc2c1
  A: 0% | B: 30% | C: 9% | D: 5%

CN(C)S(=O)(=O)c1ccc2nc(NC(=O)c3cccnc3)sc2c1
  A: 1% | B: -21% | C: -8% | D: 44%

O=C(NC(Nc1nc2ccc([N+](=O)[O-])cc2s1)(C(F)(F)F)C(F)(F)F)c1ccccc1Cl
  A: u | B: u | C: 25µM* | D: -1%

CC(C)(C)N(Cc1ccc2c(c1)OCO2)C(=O)/C=C\S(=O)c1ccccc1 (stereo not drawn)
  A: 0% | B: 1% | C: 15% | D: 22%

O=C1C(F)=CC(COC(c2ccccc2)(c2ccccc2)c2ccccc2)OC1n1cc(F)c(=O)[nH]c1=O (stereo not drawn)
  A: 3% | B: -9% | C: 21% | D: -4%

Cc1nccn1CCC(=O)NC1CC(C)(C)Cc2c1cnn2-c1ccccc1 (stereo not drawn)
  A: x | B: x | C: x | D: 3%

Part of the list above, with tabs:
SMILES	Rango-impB inh	Rango release inh	gsp antag	gsp agonist
O=C(NC(Nc1nc2ccc([N+](=O)[O-])cc2s1)(C(F)(F)F)C(F)(F)F)c1cccnc1	u	u	35µM*	u
Cc1nccn1CCC(=O)NC1CC(C)(C)Cc2c1cnn2-c1ccccc1 (stereo not drawn)	x	x	x	3%
O=[N+]([O-])c1ccc2nc(SCc3ccccc3Cl)sc2c1	7%	15%	25µM*	-12%
CCOC(=O)c1c(NC(=O)C2CC(Cl)=CCC2C(=O)O)sc2c1CC(C)(C)OC2 (stereo not drawn)	-3%	-14%	14µM*	23%[15.4 µM]

(continued)
Assay codes: A = Rango-impB inh; B = Rango release inh; C = gsp antag; D = gsp agonist
CC(C)=CCc1c(O)cc2oc3c(CC=C(C)C)c(O)c(O)c(CC=C(C)C)c3c(=O)c2c1O
  A: u | B: u | C: 32µM* | D: u

CC(C)=CCc1cc(-c2oc3cc(O)cc(O)c3c(=O)c2O)ccc1O
  A: -1% | B: -13% | C: 2% | D: x

CC(=O)c1cc2c(cc1NC(=O)CSc1ncccn1)OCO2
  A: x | B: x | C: x | D: 1%

COc1ccc(C(=O)c2sc3nc(C)cc(-c4cccs4)c3c2N)cc1
  A: u | B: u | C: -15% | D: 10µM*

COc1ccc(C2CC(c3cccs3)=NN2C(=O)CCCC(=O)O)cc1OC (stereo not drawn)
  A: x | B: x | C: x | D: -60%

CC1CCCCC1=NNC(=O)c1ccccc1 (stereo not drawn)
  A: x | B: x | C: x | D: -47%

CCOC(=O)c1nc(Nc2cc(C)cc(C)c2)c2ccccc2n1
  A: -2% | B: -8% | C: 7.9µM* | D: -5%[15.4 µM]

O=C(Nc1cccc(Br)c1)c1ccc2nc(N3C(=O)CCC3=O)sc2c1
  A: -1% | B: -8% | C: 35µM* | D: -24%
